PMC7614726 (ACS chemical neuroscience, 2020)

By UniProt entry, the sequences of proteins in these tests, tags left out. Where a name states a change or a piece, a line headed by the entry shows the natural chain unless it says otherwise.
UniProt P56524: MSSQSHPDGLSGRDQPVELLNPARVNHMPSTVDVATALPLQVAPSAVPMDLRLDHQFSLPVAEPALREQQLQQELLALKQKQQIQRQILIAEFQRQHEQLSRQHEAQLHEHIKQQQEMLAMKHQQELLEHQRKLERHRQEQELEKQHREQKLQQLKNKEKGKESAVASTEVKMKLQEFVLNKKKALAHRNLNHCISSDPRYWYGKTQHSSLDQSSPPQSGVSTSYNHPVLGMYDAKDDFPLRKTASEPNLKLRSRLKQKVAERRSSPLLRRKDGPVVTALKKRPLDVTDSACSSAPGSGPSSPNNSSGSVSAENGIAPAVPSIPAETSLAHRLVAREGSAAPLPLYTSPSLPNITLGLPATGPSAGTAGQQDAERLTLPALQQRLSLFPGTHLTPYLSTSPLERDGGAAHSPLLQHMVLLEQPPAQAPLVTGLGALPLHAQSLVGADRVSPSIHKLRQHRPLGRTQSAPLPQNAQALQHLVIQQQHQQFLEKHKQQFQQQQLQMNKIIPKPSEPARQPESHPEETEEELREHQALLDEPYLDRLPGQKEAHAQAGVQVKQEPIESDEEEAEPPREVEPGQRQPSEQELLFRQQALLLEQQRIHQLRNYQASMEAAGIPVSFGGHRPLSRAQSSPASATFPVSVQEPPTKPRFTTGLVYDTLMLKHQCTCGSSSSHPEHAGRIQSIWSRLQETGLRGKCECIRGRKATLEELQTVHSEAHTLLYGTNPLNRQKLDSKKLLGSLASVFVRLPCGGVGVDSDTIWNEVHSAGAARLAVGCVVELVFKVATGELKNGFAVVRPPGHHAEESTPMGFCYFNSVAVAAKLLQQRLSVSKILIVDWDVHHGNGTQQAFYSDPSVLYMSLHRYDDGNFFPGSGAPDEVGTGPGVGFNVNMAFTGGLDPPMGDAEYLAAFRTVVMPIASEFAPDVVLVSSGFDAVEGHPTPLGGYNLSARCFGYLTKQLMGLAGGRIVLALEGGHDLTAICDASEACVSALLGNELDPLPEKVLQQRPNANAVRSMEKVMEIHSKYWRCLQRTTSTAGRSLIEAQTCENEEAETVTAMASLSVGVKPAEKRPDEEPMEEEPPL

Biological target: HDAC4 (Homo sapiens, UniProt P56524)
Assay: biochemical

CN1CCc2c(c3ccccc3n2Cc2ccc(C(=O)NO)cc2)C1 [Tubastatin A]
IC50: 6.2 µM
